The source of these data is patent US6573044B1, “Methods of using chemical libraries to search for new kinase inhibitors” (The Regents of the University of California, priority 1997, dated 2003).

The target in one test is CDK2/cyclin E (Homo sapiens, UniProt P24941). The experiment in a line: CDK2/cyclin E kinase inhibition. The test is classed as biochemical. Conditions: Table 2, purified kinase.
Another test concerns the target CDK2/cyclin A (Homo sapiens, UniProt P24941). The test can be described thus: CDK2/cyclinA microtiter histone H1 phosphorylation assay. The settings on record: read-out: IC50 cdk2/cyclin A; Table 2, purified kinase.

On to “2-(1R-isopropyl-2-hydroxyethyl)-6-(3-chloroanilino)-9-isopropylpurine [Purvalanol A]”, for which the IC50 is 35 nM at CDK2/cyclin E and 70 nM on CDK2/cyclin A.
